According to patent US6723235B2, “Apparatus for screening compound libraries” (priority 1998, dated 2004):

Molecular target: human α-thrombin (Homo sapiens, UniProt P00734)
Experiment: FC-MS screening on immobilized human α-thrombin column

SMILES: N=C(N)NCCC[C@H](NC(=O)[C@@H]1CCCN1C(=O)[C@H](N)Cc1ccccc1)C(=O)O
- maximum intensity of indicator relative to infusion concentration (roll-up effect) (1 μM fPR with 1 μM fPR-chloromethyl ketone, column approximately 50 pmol active protein, FIG. 16B): approximately 3 times
- V−V0 (fresh column, void marker and peptide alone, 1 μM each): approximately twice the value measured from the mixture
